pIC50: −log10 of the molar value.

Amino acid sequences for entries named in this document (tags omitted). Residues count along the entry.
UniProt P30530, 473-894 limits assumed: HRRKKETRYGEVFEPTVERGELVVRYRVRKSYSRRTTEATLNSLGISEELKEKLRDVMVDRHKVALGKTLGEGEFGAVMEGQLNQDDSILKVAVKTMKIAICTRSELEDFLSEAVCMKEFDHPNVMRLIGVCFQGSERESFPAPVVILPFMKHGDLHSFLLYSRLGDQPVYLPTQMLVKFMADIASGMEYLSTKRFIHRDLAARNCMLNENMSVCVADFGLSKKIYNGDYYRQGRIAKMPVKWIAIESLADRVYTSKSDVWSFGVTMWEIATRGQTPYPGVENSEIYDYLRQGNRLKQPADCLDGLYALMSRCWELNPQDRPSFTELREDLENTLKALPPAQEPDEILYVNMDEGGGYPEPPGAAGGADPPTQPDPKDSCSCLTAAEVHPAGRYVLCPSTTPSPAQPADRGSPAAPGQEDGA

For one experiment, the target named is AXL kinase (Homo sapiens, UniProt P30530). Kind of experiment: Inhibitory activity of compound against AXL kinase (HTRF KinEASE). Format: biochemical. The conditions noted are these: read-out: Inhibitory activity IC50 (nM) against AXL; AXL enzyme (Carna, 08-107), ATP 15 μM; "<" means below detection limit of the test.
`CO[C@@H]1CCN([C@@H]2CCc3ccc(Nc4ncc(Cl)c(Nc5ccc(C)cc5P(C)(C)=O)n4)cc3CC2)C1` (single isomer, unassigned): the IC50 – broadly, the midpoint of a concentration-inhibition curve – was found to be 47.4 nM.
In the case of `CO[C@@H]1CCN([C@H]2CCc3ccc(Nc4ncc(Cl)c(Nc5ccc(C)cc5P(C)(C)=O)n4)cc3CC2)C1` (single isomer, unassigned), the IC50 came out at 4.87 nM.
Same read-out and setting: the same measure for `CO[C@H]1CCN([C@@H]2CCc3ccc(Nc4ncc(Cl)c(Nc5ccc(C)cc5P(C)(C)=O)n4)cc3CC2)C1` (single isomer, unassigned): 66.4 nM; for `CO[C@H]1CCN([C@H]2CCc3ccc(Nc4ncc(Cl)c(Nc5ccc(C)cc5P(C)(C)=O)n4)cc3CC2)C1` (single isomer, unassigned): 3.43 nM.
Same read-out and setting: the figure for `CP(C)(=O)c1cc(Cl)ccc1Nc1nc(Nc2ccc3c(c2)CC[C@H](N2C[C@@H]4C[C@H]2CO4)CC3)ncc1Cl` (single isomer, unassigned) is 21.8 nM; for `CP(C)(=O)c1cc(OC2CC2)ccc1Nc1nc(Nc2ccc3c(c2)CC[C@H](N2CC4CC2C4)CC3)ncc1Cl` (single isomer, unassigned) it is 38.1 nM.
On to `Cc1ccc(Nc2nc(Nc3ccc4c(c3)CC[C@@H](N3CC[C@@H](F)C3)CC4)ncc2Cl)c(P(C)(C)=O)c1` (single isomer, unassigned), for which the IC50 is 3.21 nM.
On to `Cc1ccc(Nc2nc(Nc3ccc4c(c3)CC[C@@H](N3CC[C@@H](O)C3)CC4)ncc2Cl)c(P(C)(C)=O)c1` (single isomer, unassigned), for which the IC50 worked out at 8.05 nM.
The same measure, in the same setting: the figure for `Cc1ccc(Nc2nc(Nc3ccc4c(c3)CC[C@@H](N3CC[C@H](C#N)C3)CC4)ncc2Cl)c(P(C)(C)=O)c1` (single isomer, unassigned) is 4.01 nM; for `Cc1ccc(Nc2nc(Nc3ccc4c(c3)CC[C@H](N3CCC5(COC5)C3)CC4)ncc2Cl)c(P(C)(C)=O)c1` (single isomer, unassigned) it is 38.2 nM; for `Cc1ccc(Nc2nc(Nc3ccc4c(c3)CC[C@H](N3CC[C@@H](C#N)C3)CC4)ncc2Cl)c(P(C)(C)=O)c1` (single isomer, unassigned) it is 38.2 nM.
Turning to `Cc1ccc(Nc2nc(Nc3ccc4c(c3)CC[C@H](N3CC[C@@H](F)C3)CC4)ncc2Cl)c(P(C)(C)=O)c1` (single isomer, unassigned), the IC50 worked out at 50.1 nM.
The same measure, in the same setting: the figure for `Cc1ccc(Nc2nc(Nc3ccc4c(c3)CC[C@H](N3CC[C@@H](O)C3)CC4)ncc2Cl)c(P(C)(C)=O)c1` (single isomer, unassigned) is 74.3 nM; for `Cc1ccc(Nc2nc(Nc3ccc4c(c3)CC[C@H](N3CC[C@H](C#N)C3)CC4)ncc2Cl)c(P(C)(C)=O)c1` (single isomer, unassigned) it is 64.2 nM.
For `Cc1ccc(Nc2nc(Nc3ccc4c(c3)CC[C@H](N3CC[C@H](F)C3)CC4)ncc2Cl)c(P(C)(C)=O)c1` (single isomer, unassigned), the 50% inhibitory concentration (IC50) turned out to be 63.4 nM.
For the molecule `Cc1ccc(Nc2nc(Nc3ccc4c(c3)CC[C@H](N3CC[C@H](O)C3)CC4)ncc2Cl)c(P(C)(C)=O)c1` (single isomer, unassigned), the IC50 came to 80.5 nM.
With `CP(C)(=O)c1cc(F)ccc1Nc1nc(Nc2ccc3c(c2)CCC(N2CCC4CC42)CC3)ncc1Cl` (single isomer, unassigned) [Example 58 Isomer 58-3], the IC50 was found to be 60.4 nM.
Consider `CP(C)(=O)c1cc(F)ccc1Nc1nc(Nc2ccc3c(c2)CCC(N2CCC4CC42)CC3)ncc1Cl` (single isomer, unassigned) [Example 58 Isomer 58-4], for which the IC50 came to 78.5 nM.
In the case of `CP(C)(=O)c1cc(F)ccc1Nc1nc(Nc2ccc3c(c2)CCC(N2CC4CC4C2)CC3)ncc1Cl` (single isomer, unassigned) [Example 59 Isomer 59-2], the 50% inhibitory concentration (IC50) amounted to 86.5 nM.
Regarding `CP(C)(=O)c1cc(F)ccc1Nc1nc(Nc2ccc3c(c2)CCC(N2CC4CC2C4)CC3)ncc1Cl` (single isomer, unassigned) [Example 60 Isomer 60-2], the 50% inhibitory concentration (IC50) worked out at 107 nM.
Take `CP(C)(=O)c1cc(F)ccc1Nc1nc(Nc2ccc3c(c2)CCC(N2CCC4(CC4)C2)CC3)ncc1Cl` (single isomer, unassigned) [Example 62 Isomer 62-1]: the IC50 came to 49 nM.
As for `CP(C)(=O)c1cc(F)ccc1Nc1nc(Nc2ccc3c(c2)CCC(N2CC4CC2CO4)CC3)ncc1Cl` (single isomer, unassigned) [Example 63 Isomer 63-2], the IC50 amounted to 61.7 nM.
Consider `CP(C)(=O)c1cc(F)ccc1Nc1nc(Nc2ccc3c(c2)CCC(N2CC4CC2CO4)CC3)ncc1Cl` (single isomer, unassigned) [Example 63 Isomer 63-3], for which the IC50 amounted to 2.46 nM.
Regarding `CP(C)(=O)c1cc(F)ccc1Nc1nc(Nc2ccc3c(c2)CCC(N2CC4CC2CO4)CC3)ncc1Cl` (single isomer, unassigned) [Example 63 Isomer 63-4], the IC50 was 57 nM.
Same read-out and setting: the figure for `Cc1ccc(Nc2nc(Nc3ccc4c(c3)CCC(N3CCC5(CC5)C3)CC4)ncc2Cl)c(P(C)(C)=O)c1` (single isomer, unassigned) [Example 69 Isomer 69-2] is 44.7 nM; for `Cc1ccc(Nc2nc(Nc3ccc4c(c3)CCC(N3CC5CC5C3)CC4)ncc2Cl)c(P(C)(C)=O)c1` (single isomer, unassigned) [Example 71 Isomer 71-2] it is 26.7 nM; for `Cc1ccc(Nc2nc(Nc3ccc4c(c3)CCC(N3CC5CC3CO5)CC4)ncc2Cl)c(P(C)(C)=O)c1` (single isomer, unassigned) [Example 72 Isomer 72-1] it is 1.02 nM.
As for `Cc1ccc(Nc2nc(Nc3ccc4c(c3)CCC(N3CC5CC3CO5)CC4)ncc2Cl)c(P(C)(C)=O)c1` (single isomer, unassigned) [Example 72 Isomer 72-2], the IC50 amounted to 1 nM.
In the case of `CP(C)(=O)c1cc(OC(F)F)ccc1Nc1nc(Nc2ccc3c(c2)CCC(N2C4COCC2C4)CC3)ncc1Cl` (single isomer, unassigned) [Example 84 Isomer 84-2], the IC50 came out at 28.8 nM.
Take `CP(C)(=O)c1cc(OC(F)F)ccc1Nc1nc(Nc2ccc3c(c2)CCC(N2C4CCC2COC4)CC3)ncc1Cl` (single isomer, unassigned) [Example 85 Isomer 85-2]: the IC50 worked out at 33 nM.
For the molecule `CP(C)(=O)c1cc(C#N)ccc1Nc1nc(Nc2ccc3c(c2)CCC(N2CC4CC2C4)CC3)ncc1Cl` (single isomer, unassigned) [Example 86 Isomer 86-1], the IC50 amounted to 30.3 nM.
Regarding `CP(C)(=O)c1cc(C#N)ccc1Nc1nc(Nc2ccc3c(c2)CCC(N2C4COCC2C4)CC3)ncc1Cl` (single isomer, unassigned) [Example 87 Isomer 87-2], the 50% inhibitory concentration (IC50) worked out at 36.5 nM.
As to `CP(C)(=O)c1cc(C#N)ccc1Nc1nc(Nc2ccc3c(c2)CCC(N2C4CCC2COC4)CC3)ncc1Cl` (single isomer, unassigned) [Example 88 Isomer 88-1], the IC50 is 39.4 nM.
Turning to `Cc1ccc(Nc2nc(Nc3ccc4c(c3)CCC(N3C5COCC3C5)CC4)ncc2Cl)c(P(C)(C)=O)c1` (single isomer, unassigned) [Example 89 Isomer 89-2], the IC50 was 27.4 nM.
Turning to `Cc1ccc(Nc2nc(Nc3ccc4c(c3)CCC(N3C5CCC3COC5)CC4)ncc2Cl)c(P(C)(C)=O)c1` (single isomer, unassigned) [Example 90 Isomer 90-2], the IC50 is 45.7 nM.
For the molecule `CP(C)(=O)c1cc(F)ccc1Nc1nc(Nc2ccc3c(c2)CCC(N2C4COCC2C4)CC3)ncc1Cl` (single isomer, unassigned) [Example 91 Isomer 91-2], the half-maximal inhibitory concentration (IC50) was 57.4 nM.
Take `CP(C)(=O)c1cc(F)ccc1Nc1nc(Nc2ccc3c(c2)CCC(N2C4CCC2COC4)CC3)ncc1Cl` (single isomer, unassigned) [Example 92 Isomer 92-2]: the IC50 was 38.2 nM.
As for `CP(C)(=O)c1cc(Cl)ccc1Nc1nc(Nc2ccc3c(c2)CCC(N2C4COCC2C4)CC3)ncc1Cl` (single isomer, unassigned) [Example 93 Isomer 93-2], the 50% inhibitory concentration (IC50) was determined as 14.9 nM.
Take `CP(C)(=O)c1cc(Cl)ccc1Nc1nc(Nc2ccc3c(c2)CCC(N2C4CCC2COC4)CC3)ncc1Cl` (single isomer, unassigned) [Example 94 Isomer 94-2]: the IC50 was 27.6 nM.
The same measure, in the same setting: the figure for `CP(C)(=O)c1cc(OC(F)(F)F)ccc1Nc1nc(Nc2ccc3c(c2)CCC(N2C4COCC2C4)CC3)ncc1Cl` (single isomer, unassigned) [Example 100 Isomer 100-1] is 1 nM.
For `CP(C)(=O)c1cc(OC(F)(F)F)ccc1Nc1nc(Nc2ccc3c(c2)CCC(N2C4COCC2C4)CC3)ncc1Cl` (single isomer, unassigned) [Example 100 Isomer 100-2], the IC50 was determined as 40 nM.
The same measure, in the same setting: the figure for `CP(C)(=O)c1cc(OC(F)(F)F)ccc1Nc1nc(Nc2ccc3c(c2)CCC(N2C4CCC2COC4)CC3)ncc1Cl` (single isomer, unassigned) [Example 101 Isomer 101-1] is 1.2 nM; for `CP(C)(=O)c1cc(OC(F)(F)F)ccc1Nc1nc(Nc2ccc3c(c2)CCC(N2C4CCC2COC4)CC3)ncc1Cl` (single isomer, unassigned) [Example 101 Isomer 101-2] it is 55.2 nM.
In the case of `CP(C)(=O)c1cc(OC(F)(F)F)ccc1Nc1nc(Nc2ccc3c(c2)CCC(N2CC4CC2C4)CC3)ncc1Cl` (single isomer, unassigned) [Example 102 Isomer 102-2], the concentration for half-maximal inhibition (IC50) turned out to be 35.5 nM.
Still for that read-out and setting: the same measure for `CP(C)(=O)c1cc(OC(F)(F)F)ccc1Nc1nc(Nc2ccc3c(c2)CCC(N2C[C@H]4C[C@@H]2CO4)CC3)ncc1Cl` (single isomer, unassigned) [Example 103 Isomer 103-2]: 47.5 nM.
Consider `CP(C)(=O)c1cc(OC(F)(F)F)ccc1Nc1nc(Nc2ccc3c(c2)CCC(N2C[C@@H]4C[C@H]2CO4)CC3)ncc1Cl` (single isomer, unassigned) [Example 104 Isomer 104-2], for which the IC50 came out at 63 nM.
As to `CP(C)(=O)c1cc(Cl)ccc1Nc1nc(Nc2ccc3c(c2)CCC(N2C[C@H]4C[C@@H]2CO4)CC3)ncc1Cl` (single isomer, unassigned) [Example 105 Isomer 105-2], the half-inhibitory concentration (IC50) came to 24.9 nM.

The test system of the next experiment is MV-4-11 (human myeloid monocytic leukemia cell line). Kind of experiment: Proliferation inhibition activity of compounds to MV-4-11 cells (CellTiter-Glo). Conditions: read-out: IC50 (MV4-11), MV4-11 cells, 72 h dosing. For orientation: In ATP-based viability assays light output follows the ATP content of the culture.
Regarding `Cc1ccc(Nc2nc(Nc3ccc4c(c3)CC[C@@H](N3CC[C@@H](F)C3)CC4)ncc2Cl)c(P(C)(C)=O)c1` (single isomer, unassigned), the pIC50 (as a rule, the IC50 on a negative log10 scale, so that one unit is a factor of ten) is 8.41.
With `Cc1ccc(Nc2nc(Nc3ccc4c(c3)CC[C@@H](N3CC[C@H](C#N)C3)CC4)ncc2Cl)c(P(C)(C)=O)c1` (single isomer, unassigned), the pIC50 is 8.16.

Values taken from patent US20230227484A1, “PYRIMIDINE COMPOUND AS AXL INHIBITOR” (NANJING CHIA TAI TIANQING PHARMACEUTICAL CO., LTD., priority 2020, published 2023).
